The values below come from patent US11744863B2, “Process for preparing a pooled human platelet lysate, pooled human platelet lysate and its use for treating neurological disorders” (priority 2017, dated 2023).

The assay concerns FVB-Tg(Sod1*G86R) mice. Kind of assay: Survival of treated ALS model mice. In kind it is in vivo. The conditions noted are these: Tg males. How it is done:
The mice enrolled were FVB-Tg(Sod1*G86R)M1Jwg/J mice from JAX laboratories. Animals were group-housed (10 per cage) in a temperature-controlled room (22±2° C.) with a 12/12-hour light/dark cycle. Food and water were feed ad-libitum. […] Breeding was realized (since 2013 may) in SOPF facility and genotyping is performed by qPCR (from tail biopsy). Animal are identified with earrings.
Mice were handled and weighted at the age of 60 days. Canula implantation in intra cerebro-ventricular (ICV) by stereotaxie start at this date and mice are acclimated during 1 week.
(Gurney and al, Neurology, 1998). Then they were evaluated, twice a week (i.e. body weight and neuroscore), from the age of 67 days to their death.
Two different treatments are performed from 75 days to death: • HT_pHPL prepared as described in example 1 and at 1 g/L, pH 7.4 versus vehicle. The dose of HT_pHPL administrated by intermittent ICV was 4 μL, three times a week at rate of 0.5 μL/min. […]

The structures appear in SMILES notation.

For `Nc1nc2ccc(OC(F)(F)F)cc2s1` [Riluzole], the “effect in survival duration” value was “no effect”. Moreover, the onset of death (Day 91 without treatment) stood at 102 days.
